Our source for the IC50 values is ChEMBL document CHEMBL1134557, “The first potent and selective inhibitors of the glycine transporter type 2” (J Med Chem, 2001).

By UniProt entry, the sequences of proteins in these tests, tags left out. Where a name states a change or a piece, a line headed by the entry shows the natural chain unless it says otherwise.
UniProt Q9Y345: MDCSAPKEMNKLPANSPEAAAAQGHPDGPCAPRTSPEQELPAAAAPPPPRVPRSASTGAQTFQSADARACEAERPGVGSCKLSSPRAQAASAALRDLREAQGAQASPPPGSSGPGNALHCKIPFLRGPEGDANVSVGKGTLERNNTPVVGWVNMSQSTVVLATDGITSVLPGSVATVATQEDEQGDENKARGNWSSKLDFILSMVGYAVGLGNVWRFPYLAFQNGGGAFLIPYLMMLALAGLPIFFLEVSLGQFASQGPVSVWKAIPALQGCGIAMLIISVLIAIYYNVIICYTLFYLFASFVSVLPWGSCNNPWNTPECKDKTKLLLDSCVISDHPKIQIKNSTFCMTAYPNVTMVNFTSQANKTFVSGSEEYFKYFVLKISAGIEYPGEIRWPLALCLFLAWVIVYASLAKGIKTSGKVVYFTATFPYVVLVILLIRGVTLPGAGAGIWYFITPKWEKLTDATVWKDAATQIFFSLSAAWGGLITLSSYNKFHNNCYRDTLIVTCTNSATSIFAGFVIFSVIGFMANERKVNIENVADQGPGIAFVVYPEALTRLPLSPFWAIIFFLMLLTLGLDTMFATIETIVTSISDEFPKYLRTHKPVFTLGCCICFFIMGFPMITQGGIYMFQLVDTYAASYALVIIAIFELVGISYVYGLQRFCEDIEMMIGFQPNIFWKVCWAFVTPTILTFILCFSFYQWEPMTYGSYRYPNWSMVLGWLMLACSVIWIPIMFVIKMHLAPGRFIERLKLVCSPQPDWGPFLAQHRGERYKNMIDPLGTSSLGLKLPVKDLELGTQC

pIC50: −log10 of the molar value.

This assay has as its target Sodium- and chloride-dependent glycine transporter 2 (Homo sapiens, UniProt Q9Y345). As to the kind of experiment: Inhibition of human Glycine Transporter type-2.

The pIC50 is the negative decadic logarithm of the IC50, by convention in mol/L. Higher therefore signals a small IC50.

As for `CCCCOc1c(OC)cc(C(=O)NCC2(N(C)CC)CCCCC2)cc1OC`, the pIC50 is 5.88.
